Key:
[1] = test system: C. albicans (CA-1, Strain SLU-1); test: Radial diffusion assay; type: cell-based, Candida albicans; conditions: for C. albicans pmol/30 mm^2 zone: pmoles of peptide added to well to achieve a 30 mm^2 zone, PROBIT analysis, crude or purified (P′) peptide; for activity in radial diffusion: restated from Table 1
Outline: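 Yeast at 1×10^6 CFU/mL in agarose underlayer (3% Sabouraud, 10 mM sodium phosphate pH 7.4); 2-fold peptide dilutions in D-PBS from ~1 mg/mL loaded into wells, 3 h at 37° C, then nutrient overlayer overnight. Value: pmol/well giving 30 mm^2 net clear zone, by PROBIT regression.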

[2] = Serum stability, anti-fungal activity after serum incubation by radial diffusion bioassay; type: in vitro ADME, rat or human serum
Method: For these serum stability experiments, peptides were prepared by solid phase peptide sythesis and purified to 94% or greater purity as described in Example 1. Blood was collected from metaphane anesthesized rats by aortic bleed into Vacutainer™ tubes and allowed to clot at room temperature for approximately 30 minutes, then centrifuged at 3000 rpm (about 1000×g) for 10 minutes at room temperature and the serum aspirated. In addition, frozen human serum (North American Biologics, Inc., Miami, Fla., cat. no. 2140, lot no. 94115) was thawed at room temperature and filtered through a 0.45 μm membrane before use.
A 1 mg/mL solution of an exemplary XMP peptide to be tested was added to an equal volume of either rat or human serum described above and maintained at 37° C. At 0, 1, 2, and 4 hours, 100 μL were removed and processed by solid phase extraction for HPLC analysis as follows. Serum samples were prepared for HPLC using C-18 Sep-Pak cartridges (1 mL cartridge with 100 mg of sorbent, Waters Corp., Milford, Mass.). One hundred μL of serum sample were added to an equal volume of 1% TFA and mixed for 30 seconds on a Vortex mixer. The sample was then applied to a C-18 Sep-Pak cartridge that had been conditioned by washing with 1 mL of methanol followed by 1 mL Milli-Q water. Weakly reed components were eluted by washing with 1 mL of 0. 1% TFA. The bound peptide was eluted with two volumes of 250 μL 80% acetonitrile/0.065% TFA.
The peptides identified and purified after serum incubation as described above were subjected to N-terminal peptide sequencing performed on an Applied Biosystems Model 477A/120A sequencer and to electrospray ionization mass spectrometry (ESI/MS) performed using a VG Biotech Bio-Q Mass Spectrometer. In addition, the peptides identified and purified after serum incubation as described above were also tested for their anti-fungal activity in a radial diffusion bioassay with Candida albicans SLU-1 strain as described in Example 2.

[3] = test system: C. albicans (SLU-1 and other strains); type: cell-based, Candida albicans
Method: In additional experiments, a fluorescence-activated cell sorter (FACS) based assay was developed to test the fungicidal activity of the peptides. […] Difco) agar. Several colonies were picked from the agar plate and inoculated into 5 mL of Sabouraud's Dextrose media in a sterile 10 mL polypropylene tube. The fungal cultures were incubated for about 18 hours at 30° C. […] The culture were centrifuged at 3000 rpm for 5 minutes (Sorvall RT 6000B). After centrifugation, the supernatant was decanted leaving the fungal pellets in the centrifuge tubes. The pellets were resuspended in 15 mL of SDB. Both suspensions were combined into one tube and mixed to generate a stock culture. […] After determining the concentration of the stock, appropriate dilutions were made with Sabouraud's Dextrose media to obtain 100 mL of 1×10^6 cell/mL. […] After the 1 hour incubation, all the tubes were centrifuged at 3000 rpm for 5 minutes. […] Louis, Mo.) in Dulbecco's PBS (DPBS, GIBCO, Grand Island, N.Y.) except the autofluorescence control, which was resuspended in DPBS alone. The tubes were mixed and incubated in the dark at room temperature for at least 20 minutes. […] The settings were adjusted appropriately to the following approximate parameters: Cells were analyzed (10,000 cells/tube) and their respective fluorescence determined. […] The population of dead (i.e., propidium iodide stained) fungal cells was determined by a fluorescence threshold between the negative control and positive control.

Aspergillus ATCC 13073 = type: cell-based
Method: (§1) The anti-fungal activity of Domain III derived peptides was evaluated against a variety of fungal species, including species of Candida. Cryptococcus, Fusarium, Trichophyton, and Aspergillus, by an additional assay protocol utilizing Alamar Blue. Alamar Blue is an indicator dye formulated to measure quantitatively the proliferation of a variety of human or animal cells, bacteria, or fungi. It consists of an oxidation-reduction (REDOX) indicator that yields a colorimetric change in response to metabolic activity. For these experiments, species of Candida and Cryptococcus were grown in Sabouraud's dextrose broth (SDB) overnight. Strains of filamentous fungi (Aspergilius, Fusanum, Trichophyton) were obtained by irrigation of a confluent culture from a petri dish. Cells were washed and adjusted to a concentration of 5.0×10^3/mL in fresh SDB. […] Controls included amphotericin B, fluconazole, ketoconazole and griseofulvin. Antifungal drugs were also diluted in the same manner. Assays were performed in 96-well microuiter plates. […] The wells to be plated were determined by OD590 readings. The lowest concentration of peptide which maintained the blue color (or OD reading) of the blank was chosen along with the next two higher concentrations. Plates were allowed to grow for 18-48 hours depending on the rate of growth of each fungus. Minimal fungicidal activity (MFC) was determined as a 99.9% killing of the starting inoculum.

[4] = test system: Aspergillus niger ATCC 16404; type: cell-based
Method: as §1

[5] = test system: Cryptococcus neoformans ATCC 13690; type: cell-based
Method: as §1

## CC[C@H](C)[C@H](NC(=O)[C@H](CC(C)C)NC(=O)[C@H](Cc1c[nH]c2ccccc12)NC(=O)[C@H](CCCCN)NC(=O)[C@@H](NC(=O)[C@H](CCCCN)NC(=O)[C@H](CO)NC(=O)[C@@H](N)CCCCN)C(C)C)C(=O)N[C@@H](CCC(N)=O)C(=O)N[C@@H](CC(C)C)C(=O)N[C@@H](Cc1ccccc1)C(=O)N[C@@H](Cc1c[nH]cn1)C(=O)N[C@@H](CCCCN)C(=O)N[C@@H](CCCCN)C(N)=O [XMP.97]
[1]
  C. albicans pmol/30 mm^2 zone: 213 pmol/30 mm^2 zone
[1]; listed as XMP.97P′
  C. albicans pmol/30 mm^2 zone: 303.5 pmol/30 mm^2 zone
[2]; Activity in Serum t ½ (hr.)
  half-life at 0.5 mg/mL: 22.7 h

## CC[C@H](C)[C@H](NC(=O)[C@H](CC(C)C)NC(=O)[C@H](Cc1ccccc1)NC(=O)CNC(=O)[C@@H](NC(=O)[C@H](CCCCN)NC(=O)[C@H](CO)NC(=O)[C@@H](N)CCCCN)C(C)C)C(=O)N[C@@H](CCC(N)=O)C(=O)N[C@@H](CC(C)C)C(=O)N[C@@H](Cc1ccccc1)C(=O)N[C@@H](Cc1c[nH]cn1)C(=O)N[C@@H](CCCCN)C(=O)N[C@@H](CCCCN)C(N)=O [XMP.127]
[1]
  C. albicans pmol/30 mm^2 zone: 226 pmol/30 mm^2 zone
[1]; listed as XMP.127P′
  C. albicans pmol/30 mm^2 zone: 935 pmol/30 mm^2 zone

## CC[C@H](C)[C@H](NC(=O)[C@H](CC(C)C)NC(=O)[C@H](Cc1c[nH]c2ccccc12)NC(=O)[C@H](CCCCN)NC(=O)[C@@H](N)CCCCN)C(=O)N[C@@H](CCC(N)=O)C(=O)N[C@@H](CC(C)C)C(=O)N[C@@H](CCCCN)C(=O)N[C@@H](CCCCN)C(N)=O [XMP.327]
[1]
  C. albicans pmol/30 mm^2 zone: 353 pmol/30 mm^2 zone
  activity in radial diffusion: 353 pmol
[1]; listed as XMP.327P′
  C. albicans pmol/30 mm^2 zone: 630 pmol/30 mm^2 zone
[2]; Activity in Serum t ½ (hr.)
  half-life at 0.5 mg/mL: 2.7 h
[2]; serum half-life as determined by anti-fungal activity in the radial diffusion assay
  half-life at 0.5 mg/mL: 0.717 h

## CC[C@H](C)[C@H](NC(=O)[C@H](CC(C)C)NC(=O)[C@H](Cc1c[nH]c2ccccc12)NC(=O)[C@H](CCCCN)NC(=O)[C@H](CCCCN)NC(C)=O)C(=O)N[C@@H](CCC(N)=O)C(=O)N[C@@H](CC(C)C)C(=O)N[C@@H](CCCCN)C(=O)N[C@@H](CCCCN)C(N)=O [XMP.331]
[1]
  C. albicans pmol/30 mm^2 zone: b (No detectable activity up to 5 μg/well)
  activity in radial diffusion: > 3,493 pmol
[1]; listed as XMP.331P′
  C. albicans pmol/30 mm^2 zone: >3,493 pmol/30 mm^2 zone

## CC[C@H](C)[C@H](NC(=O)[C@H](CC(C)C)NC(=O)[C@H](Cc1c[nH]c2ccccc12)NC(=O)[C@@H](CCCCN)NC(=O)[C@H](N)CCCCN)C(=O)N[C@@H](CCC(N)=O)C(=O)N[C@@H](CC(C)C)C(=O)N[C@H](CCCCN)C(=O)N[C@H](CCCCN)C(N)=O [XMP.342]
[3]
  Activity on various strains of C. albicans, IC50, 10231: 8.07 µg/mL
  Activity on various strains of C. albicans, IC50, 14053: 2.74 µg/mL
  Activity on various strains of C. albicans, IC50, 26555: 3.19 µg/mL
  Activity on various strains of C. albicans, IC50, 90028: 3.44 µg/mL
  Activity on various strains of C. albicans, IC50, SLU#1: 1.88 µg/mL
Aspergillus ATCC 13073
  Minimum Fungicidal Concentration, Aspergillus ATCC 13073: 25.00 µg/mL
[4]
  Minimum Fungicidal Concentration, Aspergillus niger ATCC 16404: 10.00 µg/mL
[5]
  Minimum Fungicidal Concentration, Cryptococcus neoformans ATCC 13690: 1.25 µg/mL
[1]
  C. albicans pmol/30 mm^2 zone: 1,591 pmol/30 mm^2 zone
[1]; listed as XMP.342P′
  C. albicans pmol/30 mm^2 zone: 97 pmol/30 mm^2 zone

## CC[C@@H](C)[C@@H](NC(=O)[C@@H](CC(C)C)NC(=O)[C@@H](Cc1c[nH]c2ccccc12)NC(=O)[C@H](N)CCCCN)C(=O)N[C@H](CCC(N)=O)C(=O)N[C@H](CC(C)C)C(=O)N[C@H](Cc1ccccc1)C(=O)N[C@H](Cc1c[nH]cn1)C(=O)N[C@H](CCCCN)C(=O)N[C@H](CCCCN)C(N)=O [XMP.365]
[3]
  Activity on various strains of C. albicans, IC50, 10231: 3.75 µg/mL
  Activity on various strains of C. albicans, IC50, 14053: 0.13 µg/mL
  Activity on various strains of C. albicans, IC50, 26555: 0.15 µg/mL
  Activity on various strains of C. albicans, IC50, 90028: 0.27 µg/mL
  Activity on various strains of C. albicans, IC50, SLU#1: 2.11 µg/mL
Aspergillus ATCC 13073
  Minimum Fungicidal Concentration, Aspergillus ATCC 13073: 25.00 µg/mL
[4]
  Minimum Fungicidal Concentration, Aspergillus niger ATCC 16404: 5.00 µg/mL
[5]
  Minimum Fungicidal Concentration, Cryptococcus neoformans ATCC 13690: 1.25 µg/mL
[1]
  C. albicans pmol/30 mm^2 zone: 1,294 pmol/30 mm^2 zone
[1]; listed as XMP.365P′
  C. albicans pmol/30 mm^2 zone: 489 pmol/30 mm^2 zone
[2]; Activity in Serum t ½ (hr.)
  half-life at 0.5 mg/mL: 15.1 h

## CC[C@@H](C)[C@@H](NC(=O)[C@@H](CCC(N)=O)NC(=O)[C@@H](CC(C)C)NC(=O)[C@@H](Cc1ccccc1)NC(=O)[C@@H](Cc1c[nH]cn1)NC(=O)[C@@H](CCCCN)NC(=O)[C@H](N)CCCCN)C(=O)N[C@H](CC(C)C)C(=O)N[C@H](Cc1c[nH]c2ccccc12)C(=O)N[C@H](CCCCN)C(N)=O [XMP.367]
[3]
  Activity on various strains of C. albicans, IC50, 14053: 0.08 µg/mL
  Activity on various strains of C. albicans, IC50, 26555: 0.21 µg/mL
  Activity on various strains of C. albicans, IC50, 90028: 0.22 µg/mL
  Activity on various strains of C. albicans, IC50, SLU#1: 2.37 µg/mL
Aspergillus ATCC 13073
  Minimum Fungicidal Concentration, Aspergillus ATCC 13073: 50.00 µg/mL
[4]
  Minimum Fungicidal Concentration, Aspergillus niger ATCC 16404: 5.00 µg/mL
[5]
  Minimum Fungicidal Concentration, Cryptococcus neoformans ATCC 13690: 1.25 µg/mL
[1]
  C. albicans pmol/30 mm^2 zone: 4,641 pmol/30 mm^2 zone
[1]; listed as XMP.367′
  C. albicans pmol/30 mm^2 zone: 1,108 pmol/30 mm^2 zone

From patent publication US6664231B1, “Anti-fungal peptides” (priority 1993, dated 2003)
